How the values were obtained:
wildtype AmGSTF1 = experiment: CDNB activity after 60 min incubation with NBD-Cl or NBD-SG (Table S3); assay type: biochemical, Alopecurus myosuroides; conditions: 100 µM, 60 min at 20 °C, diluted 1:100, activity towards CDNB
MHR black-grass plants = conditions: three herbicide chemistries; cited from earlier work
Cys120Val AmGSTF1 = experiment: CDNB activity after 60 min incubation with NBD-Cl or NBD-SG (Table S3); conditions: 100 µM, 60 min at 20 °C, diluted 1:100, activity towards CDNB

Structure (SMILES): O=[N+]([O-])c1ccc(Cl)c2nonc12
- Inhibition vs. DMSO control (wildtype AmGSTF1): 60%
- Mean specific activity (wildtype AmGSTF1; mean ± SD, n = 3): 7.8 ± 1.1 nmol s-1 mg-1 protein
- Reversal of herbicide resistance (MHR black-grass plants): reversed resistance
- Inhibition vs. DMSO control (Cys120Val AmGSTF1): 18%
- Mean specific activity (Cys120Val AmGSTF1; mean ± SD, n = 3): 21.1 ± 1.1 nmol s-1 mg-1 protein
